The chains behind the UniProt entries cited, without tags or fusion partners. Where a name states a change or a piece, a line headed by the entry shows the natural chain unless it says otherwise.
UniProt Q03181, whole entry: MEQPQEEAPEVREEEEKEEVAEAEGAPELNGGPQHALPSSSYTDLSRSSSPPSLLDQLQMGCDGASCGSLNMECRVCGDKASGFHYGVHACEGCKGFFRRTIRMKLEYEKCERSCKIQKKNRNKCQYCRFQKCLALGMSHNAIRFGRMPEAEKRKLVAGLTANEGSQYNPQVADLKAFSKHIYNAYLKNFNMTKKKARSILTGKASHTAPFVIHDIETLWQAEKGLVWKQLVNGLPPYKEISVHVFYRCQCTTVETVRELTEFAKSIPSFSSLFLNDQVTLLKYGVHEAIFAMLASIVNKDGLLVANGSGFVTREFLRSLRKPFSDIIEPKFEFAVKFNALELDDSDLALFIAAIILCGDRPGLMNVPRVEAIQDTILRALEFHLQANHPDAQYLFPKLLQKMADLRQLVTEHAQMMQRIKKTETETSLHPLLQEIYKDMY

According to US10035819B2, “PPAR agonists and methods of use thereof” (The Salk Institute for Biological Studies, priority 2014, dated 2018):

Target: PPARδ (Homo sapiens, UniProt Q03181)
Assay: Nuclear Hormone Receptor (NHR) protein interaction assay (PathHunter), agonist format
Type: cell-based
Details: read-out: NHR protein interaction assay, EC50 (nM) for PPARδ, PathHunter NHR cell line

Compound | EC50 [nM]
CC(C)N(Cc1ccccc1OCCOCCC(=O)O)C(=O)c1ccc(-c2ccco2)cc1 | 392
CC(C)N(Cc1ccccc1OCCCCC(=O)O)C(=O)c1ccc(-c2ccco2)cc1 | 113
